Assay results from patent publication US20190309272A1, “Genetically Modified Cell Lines Including a TP53 Modification and Methods of Use” (UNIVERSITY OF SOUTH CAROLINA, priority 2018, published 2019).

Key:
Assay type in all cases: cell-based, Human
MCF7 TP53 KO 56 E3 = assay: Drug treatment of single cell clone KO 56 E3; conditions: ten day drug treatment
MCF7 TP53 KO 56 A7 = assay: Drug treatment of single cell clone KO 56 A7; conditions: ten day drug treatment; note: unit not given here
MCF7 TP53 KO 56 A5 = assay: Drug treatment of single cell clone KO 56 A5; conditions: ten day drug treatment
MCF7 TP53 KO 5.6 pool = assay: Drug screening, resazurin, TP53 KO 5.6 pool
MCF7 TP53 KO 34 B5 = assay: Drug treatment of single cell clone KO 34 B5; conditions: ten day drug treatment; note: unit not given here
MCF7 TP53 KO 34 E1 = assay: Drug treatment of single cell clone KO 34 E1; conditions: ten day drug treatment
MCF7 TP53 KO 56 A6 = assay: Drug treatment of single cell clone KO 56 A6; conditions: ten day drug treatment
MCF7 TP53 KO 3.4 pool = assay: Drug screening, resazurin, TP53 KO 3.4 pool; conditions: ten-day drug treatment, 156.25 nM to 10 μM, resazurin fluorescence

Nutlin3
area under the curve (AUC) (MCF7 TP53 KO 56 E3): 1.564 | area under the curve (AUC) (MCF7 TP53 KO 56 A7): 1.761 | area under the curve (AUC) (MCF7 TP53 KO 56 A5): 1.595 | area under the curve (AUC) (MCF7 TP53 KO 5.6 pool; KO 56 Pool, ten day drug treatment (Table 3)): 1.374 | TP53 KO 5.6 pool (AUC) (MCF7 TP53 KO 5.6 pool; ten-day drug treatment, 156.25 nM to 10 μM, resazurin fluorescence): 8.605 | area under the curve (AUC) (MCF7 TP53 KO 34 B5): 1.234 | area under the curve (AUC) (MCF7 TP53 KO 34 E1): 1.538 | area under the curve (AUC) (MCF7 TP53 KO 56 A6): 1.512 | TP53 KO 3.4 pool (AUC) (MCF7 TP53 KO 3.4 pool): 9.455
